# Membrane permeability of cyclic peptides

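Conditions beyond the assay type are not listed; see the original paper. The list need not hold all peptides of the study. Entries at the database's floor value (log10 P of -10) are not listed.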

PAMPA measures passive passage through an artificial lipid membrane. Values are log10 P with P in cm/s, so -5 is more permeable than -7.

The entry for CC(C)C[C@@H]1NC(=O)[C@H](CC(C)C)NC(=O)[C@@H](CC(C)C)NC(=O)[C@H]2CCCN2C(=O)[C@H](Cc2ccc(O)cc2)NC(=O)[C@@H](CC(C)C)NC1=O lists PAMPA -5.11 (log10 cm/s). CC(C)C[C@@H]1NC(=O)[C@H](CC(C)C)NC(=O)[C@@H](CC(C)C)NC(=O)[C@H]2CCCN2C(=O)[C@H](Cc2ccc(O)cc2)NC(=O)[C@H](CC(C)C)NC1=O has PAMPA -5.59 (log10 cm/s). CC(C)C[C@@H]1NC(=O)[C@@H](CC(C)C)NC(=O)[C@H](CC(C)C)NC(=O)[C@@H](CC(C)C)NC(=O)[C@H]2CCCN2C(=O)[C@H](Cc2ccc(O)cc2)NC1=O is reported with PAMPA -5.77 (log10 cm/s). For CC(C)C[C@@H]1NC(=O)[C@H](CC(C)C)NC(=O)[C@@H](CC(C)C)NC(=O)[C@@H](CC(C)C)NC(=O)[C@H]2CCCN2C(=O)[C@H](Cc2ccc(O)cc2)NC1=O the data give PAMPA -5.78 (log10 cm/s). Listed for CC(C)C[C@H]1NC(=O)[C@H]2CCCN2C(=O)[C@H](Cc2ccc(O)cc2)NC(=O)[C@@H](CC(C)C)NC(=O)[C@@H](CC(C)C)NC(=O)[C@@H](CC(C)C)NC1=O: PAMPA -5.54 (log10 cm/s). Listed for CC(C)C[C@@H]1NC(=O)[C@@H](CC(C)C)NC(=O)[C@H]2CCCN2C(=O)[C@H](Cc2ccc(O)cc2)NC(=O)[C@@H](CC(C)C)NC(=O)[C@@H](CC(C)C)NC1=O: PAMPA -5.31 (log10 cm/s).

Listed for CC(C)C[C@@H]1NC(=O)[C@@H](CC(C)C)NC(=O)[C@@H](CC(C)C)NC(=O)[C@H]2CCCN2C(=O)[C@H](Cc2ccc(O)cc2)NC(=O)[C@@H](CC(C)C)NC1=O: PAMPA -5.14 (log10 cm/s). The entry for CC(C)C[C@@H]1NC(=O)[C@@H](CC(C)C)NC(=O)[C@@H](CC(C)C)NC(=O)[C@@H](CC(C)C)NC(=O)[C@H]2CCCN2C(=O)[C@H](Cc2ccc(O)cc2)NC1=O lists PAMPA -5.64 (log10 cm/s).

Collected by the curators of CycPeptMPDB (Li et al. 2023) from doi:10.1021/acs.jcim.9b00217.